Consider one molecule from ChEMBL document CHEMBL1157459 (J Med Chem, 2008).

Amino acid sequences for entries named in this document (tags omitted). A change or cut given only in a name is not applied to a line headed by its entry.
UniProt P24046: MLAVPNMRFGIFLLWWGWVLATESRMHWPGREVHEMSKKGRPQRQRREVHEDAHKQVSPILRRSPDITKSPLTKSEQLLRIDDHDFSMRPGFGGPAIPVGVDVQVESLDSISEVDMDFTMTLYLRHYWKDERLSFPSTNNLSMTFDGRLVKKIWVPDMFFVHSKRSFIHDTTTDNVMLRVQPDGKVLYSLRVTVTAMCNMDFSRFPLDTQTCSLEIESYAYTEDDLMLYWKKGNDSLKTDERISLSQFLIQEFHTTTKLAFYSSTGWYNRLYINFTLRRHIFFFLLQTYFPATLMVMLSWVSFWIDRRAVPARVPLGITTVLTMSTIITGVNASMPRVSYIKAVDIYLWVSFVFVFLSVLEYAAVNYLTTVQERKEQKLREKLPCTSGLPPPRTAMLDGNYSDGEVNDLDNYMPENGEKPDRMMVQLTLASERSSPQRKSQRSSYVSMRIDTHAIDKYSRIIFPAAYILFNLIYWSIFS

The target of the experiment is Gamma-aminobutyric acid receptor subunit rho-1 (Homo sapiens, UniProt P24046). The experiment in a line: Antagonist activity at human GABAc Rho1 receptor expressed in Xenopus oocytes assessed as whole cell current production by two electrode voltage clamp method. The format is functional, cell-based. Conditions: Oocyte.

Broadly, the Kb is the equilibrium dissociation constant of an antagonist, usually derived from a functional assay. With `CP(=O)(O)CCCN`, the Kb is 800 nM.
